# Yeast mating assay B: variants of the scFv Ab-14

From the AlphaSeq antibody data of Li et al. 2023 (doi:10.1038/s41467-023-39022-2), copy in the FLAb collection.

Target peptide (SARS-CoV-2 spike, HR2 region): PDVDLGDISGINAS

Parent scFv Ab-14: VH joined to VL by a 15-residue (Gly4Ser)3 linker. Changes lie in the light chain CDRs alone.
VH: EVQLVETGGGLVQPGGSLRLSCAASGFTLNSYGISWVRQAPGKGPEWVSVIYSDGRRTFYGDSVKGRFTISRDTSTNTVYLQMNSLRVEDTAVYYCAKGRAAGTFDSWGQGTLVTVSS
VL: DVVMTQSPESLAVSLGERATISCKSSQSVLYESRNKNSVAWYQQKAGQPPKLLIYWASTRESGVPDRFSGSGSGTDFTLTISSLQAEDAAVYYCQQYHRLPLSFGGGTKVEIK

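The starting antibody came from a phage panning campaign against this peptide. These sequences belong to a second round, designed from the earlier measurements on random variants of the parent. Their group label is 14L_GP_Gen (GP: Gaussian process model; Gen: genetic algorithm; a sequence that several methods proposed may carry one label only). The assay is AlphaSeq: two haploid yeast populations carry antibody and antigen on their surface. Pairs that bind mate more often; barcode pairs of the diploids are counted by sequencing. Scores were corrected for input abundance and mapped to Kd with protein pairs of known affinity run in the same pool. The assay was run in six technical replicates.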

Each variant is given by its three light chain CDRs, as the data file delimits them; those of the parent are KSSQSVLYESRNKNSVA, WASTRES, QQYHRLPLS.
Values are log10 of the apparent Kd in nM; lower means stronger binding.
Averages over replicates are reported, and they cover detected replicates only.

CDR-L1,CDR-L2,CDR-L3,"log10 Kd, replicates",mean log10 Kd (nM),empty controls
KLSQSVGYESRNKNNVA,HASTRES,QQYHRLPLS,-0.20 -0.38 -0.41 -0.47 -0.51 -0.25,-0.37,5 of 18 (3.52)
KLSQSQGYESRNKNSVA,NASTRES,QQYHRLPLS,0.43 0.19 0.20 -0.05 0.02 0.20,0.16,3 of 18 (3.73)
KLEQSEEYESRNKNSVA,NASQRES,QQYHRLPLS,0.15 0.10 -0.17 -0.20 0.07 0.48,0.07,1 of 18 (2.49)
KLSQSWLYESRNKNSVA,QASTRES,QDYHRLPLS,0.25 -0.03 -0.09 -0.22 -0.04 0.08,-0.01,1 of 18 (2.40)
HLSQSVLYESRNKNSVA,NASTRCS,QQYHRLPLS,-0.16 -0.28 -0.43 -0.46 -0.17 -0.08,-0.26,1 of 18 (2.09)
KLSQSMLYESRNKNSVA,DASTRLS,QQYHRLPLS,0.09 -0.54 -0.14 -0.80 -0.48 -0.44,-0.38,0 of 18
KFQQSVLYESRNKNSVA,EASTRES,QQYHRLPLS,-0.24 -0.43 -0.49 -0.46 -0.42 -0.28,-0.39,0 of 18
KLPQSGLYESRNKNSVA,SASTRES,QQYHRLPLS,0.17 -0.13 0.15 0.07 -0.14 -0.16,-0.01,0 of 18
KLSQSVPYESRMKNSVA,NASTRES,QQYHRLPLS,0.89 0.63 0.39 0.28 0.56 0.65,0.57,0 of 18
KLSQSVLYESRNKNNVA,NASTRCS,QQYHRLPLS,-0.48 -0.53 -0.36 -0.66 -0.43 -0.27,-0.46,1 of 18 (3.66)
KLSQSELYESRNKNSVA,NASTRMD,QQYHRLPLS,-0.36 -0.59 -0.39 -0.58 -0.47 -0.08,-0.41,0 of 18
KLSQSYLYESGNKNSVA,NASTRMS,QQYHRLPLS,-0.16 -0.48 -0.55 -0.47 -0.44 -0.39,-0.41,0 of 18
KLSGSFLYESRNKNSVA,NASTRES,QQYHRLPLS,-0.12 -0.10 -0.12 -0.41 -0.21 -0.08,-0.17,0 of 18
KLSQSWLYESRMKNNVA,NASTRES,QQYHRLPLS,0.32 0.05 -0.08 -0.06 0.03 0.31,0.10,3 of 18 (2.83)
KLEMSVLYESRNKNSVA,NASTRES,QQYHRLPLS,-0.18 -0.43 -0.50 -0.56 -0.48 -0.34,-0.41,0 of 18
KLSQSNLYESRNKNNVA,GASTRES,QQYHRLPLS,-0.19 -0.32 -0.04 -0.47 -0.21 -0.14,-0.23,0 of 18
KVEQSHLYESRNKNSVA,NASTRLS,QQYHRLPLS,0.13 -0.03 -0.04 -0.15 -0.10 -0.08,-0.05,4 of 18 (2.76)
KLSESDLYESRNKNSVA,HASTRES,QQYHRLPLS,-0.12 -0.32 -0.25 -0.49 -0.19 -0.17,-0.26,0 of 18
KLPQSYLYESRNKNSVA,SASTRES,QQYHRLPLS,0.21 -0.04 0.07 -0.48 -0.14 -0.02,-0.06,0 of 18
KFSQSVLYEDRNKNSVA,NASQREQ,QQYHRLPLS,0.02 -0.04 -0.07 -0.32 -0.09 0.16,-0.06,1 of 18 (2.70)
KLPQSVQYESRNKNSVA,SASTRES,QQYHRLPLS,-0.47 0.22 -0.30 0.52 0.47 0.57,0.17,0 of 18
KFSQSVLYESRNKNSVA,EASTREV,QQYHRLPLS,-0.22 -0.16 -0.39 -0.32 -0.12 -0.25,-0.25,0 of 18
KLSQSVLYESRNSNSVA,HASTRES,QQYHRLPLS,0.49 0.37 0.07 0.10 0.21 0.43,0.28,1 of 18 (3.91)
KLPQSVPYESRNKNSVA,EASTRES,QQYHRLPLS,-0.14 -0.29 -0.31 -0.31 -0.34 -0.25,-0.28,1 of 18 (3.45)
KLQQSVLYESRNKNSVA,QASTRSS,QQYHRLPLS,0.19 0.03 0.03 0.17 0.05 0.12,0.10,2 of 18 (2.73)
KLWQSVLYESRNKNSVA,EASTRES,QQYHRLPLS,0.55 0.98 0.70 0.71 0.65 1.04,0.77,0 of 18
KLSQSELYESRNKNSVA,HASTRMS,QQYHRLPLS,0.70 0.47 0.46 0.42 0.46 0.48,0.50,0 of 18
KLSQSVLYESRNKNNVA,HASTRES,QDYHRLPLS,0.09 -0.01 0.09 -0.13 -0.03 0.14,0.03,0 of 18
KLQQSHLYESRMKNSVA,NASTRMS,QQYHRLPLS,0.24 0.31 0.02 0.15 0.45 0.32,0.25,0 of 18
KLSQSVLYGSRNKNSVA,NASTRMS,QQYHRLPLS,0.25 0.16 0.27 -0.26 0.06 0.01,0.08,0 of 18
KMSQSWLYESRNKNNVA,NASQRES,QQYHRLPLS,-0.46 -0.46 -0.54 -0.68 -0.56 -0.33,-0.51,3 of 18 (2.42)
KLPQSQLYESRNKNSVA,HASQRES,QQYHRLPLS,0.17 0.02 -0.18 -0.19 -0.20 0.02,-0.06,4 of 18 (3.57)
KLQQSVPYESRNKNSVA,QASTRES,QQYHRLPLS,0.36 0.36 0.16 0.59 0.21 0.36,0.34,5 of 18 (2.64)
KLSQSVLYESRNKNSVA,EASTREV,QQYHRLPLS,-0.04 0.21 0.22 -0.08 0.10 0.09,0.08,1 of 18 (5.08)
KLPQSWLYESRMKNSVA,NASQRES,QQYHRLPLS,-0.01 -0.21 -0.28 -0.49 -0.39 -0.28,-0.27,2 of 18 (2.94)
KLEQSQLYESRNKNAVA,NASQRES,QQYHRLPLS,-0.17 -0.24 -0.49 -0.43 -0.42 -0.30,-0.34,0 of 18
KLQQSELYESRNKNSVA,NASKRLS,QQYHRLPLS,0.56 0.20 0.07 0.13 0.09 0.32,0.23,1 of 18 (2.47)

A selection of 2 entries from above:

{"CDR-L1": "KLPQSYLYESRNKNSVA", "CDR-L2": "SASTRES", "CDR-L3": "QQYHRLPLS", "log10 Kd, replicates": "0.21 -0.04 0.07 -0.48 -0.14 -0.02", "mean log10 Kd (nM)": "-0.06", "empty controls": "0 of 18"}
{"CDR-L1": "KLSQSQGYESRNKNSVA", "CDR-L2": "NASTRES", "CDR-L3": "QQYHRLPLS", "log10 Kd, replicates": "0.43 0.19 0.20 -0.05 0.02 0.20", "mean log10 Kd (nM)": "0.16", "empty controls": "3 of 18 (3.73)"}

The authors averaged sequences with at least three values out of six and counted those with two or fewer as poor binders.
Of ten entries with the parent sequence, four were seen in most replicates (averages 0.34 to 2.37), three in one and three in none, so single entries are noisy.
Nonspecific signal, from three strains lacking the peptide, appeared in 4% of pairings of all light chain designs, centred on 2.64 (5% of these signals below 1.59); values are not corrected for it. The control count says in how many pairings with the empty strains this scFv gave a signal, with their mean in brackets.
Values of this round are not directly comparable with the first-round values of the same sequences.